Assay results taken from patent US4015974A, “Amido phosphorothiolates” (priority 1972, dated 1977).

Test system: tobacco cut worm (Spondoptera litura)
Experiment: Lethal effect on tobacco cut worm (Table 5)
Assay type: in vivo
Conditions: tobacco cutworm, larvae on chinese cabbage leaves, 48 h
Protocol: The present compounds of an emulsifiable concentrate type were applied to leaves of chinese cabbage in the form of an 1000 fold dilute solution. After air-drying, third to fourth instar larvae of tobacco cut worm were released and after 48 hours the death and alive were observed.

With `CCOP(=S)(Oc1ccc([N+](=O)[O-])cc1)c1ccccc1` (stereo not shown) [EPN, reference compound] the Mortality was 70.0%.
